AlphaSeq binding of Ab-14 light chain variants to a spike HR2 peptide

Reference: Li et al. 2023, doi:10.1038/s41467-023-39022-2. File: FLAb, binding data.

Target: peptide PDVDLGDISGINAS, taken from heptad repeat 2 (HR2) of SARS-CoV-2 spike.

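Phage display of a naive human antibody library on the peptide gave the parent. The variants were designed computationally from a first round of random CDR variants and then made and measured. Several design methods are mixed in this list. Affinity was read by AlphaSeq, a pooled yeast mating assay with surface-displayed partners. The frequency of each diploid, read from paired DNA barcodes, reflects how well the two displayed proteins bind. Each replicate has its own calibration line, from reference interactions of the BCL2 family. Each pool was mated in six replicate cultures.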

Ab-14 is the parent antibody, in scFv form: VH, then three GGGGS repeats, then VL. The heavy chain is unchanged in all variants.
VH: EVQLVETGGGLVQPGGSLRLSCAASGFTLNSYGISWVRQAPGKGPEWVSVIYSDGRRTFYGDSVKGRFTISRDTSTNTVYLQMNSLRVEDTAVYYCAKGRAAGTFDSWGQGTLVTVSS
VL: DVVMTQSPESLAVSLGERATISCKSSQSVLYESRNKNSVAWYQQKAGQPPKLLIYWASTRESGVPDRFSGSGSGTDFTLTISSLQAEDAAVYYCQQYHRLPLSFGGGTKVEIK

The parent's light chain CDRs are KSSQSVLYESRNKNSVA, WASTRES, QQYHRLPLS; each variant's own CDRs replace them letter for letter. Values are log10 of the apparent Kd in nM; lower means stronger binding. Replicates are averaged; those with no signal do not enter the mean. "no signal" marks a missing value. The strain was present, yet no cells mated with the target were sequenced in any replicate, which points to weak or no binding.

CDR-L1,CDR-L2,CDR-L3,"mean, log10 nM",replicates with signal,empty controls
HVSMLTLGGLKNRNSVA,QMTTREN,QQYDRLPLS,0.33,6 of 6,0 of 18
KFQQSQLYESRNMNSVA,NASKRMQ,QQYHRLPLK,0.23,6 of 6,1 of 18
KSSQSVRYESQNKNSVA,EGSTRES,QQYRRLPLS,0.67,6 of 6,0 of 18
KSSQSQGYEHRNKNNVA,WASTRES,QQYHRLPCS,no signal,0 of 6,0 of 18
KLSQSVLYESRNKNSVA,NASKRES,QQYHRLPLS,0.15,6 of 6,0 of 18
KLPQSEPYESRCFNSVA,NASTRCS,QQYHRLPLS,0.28,6 of 6,1 of 18
KVSQSWDMESRNKNSVA,EASTRES,QQYHRLPLS,-0.17,6 of 6,1 of 18
KLTMITGLEKVQKNNVA,EMETREE,QQYNRLPLS,-0.19,6 of 6,1 of 18
MFSQLVYTGSRTKNAVA,QASTREN,QQYHRLPLV,1.21,6 of 6,0 of 18
KGSQWNLYESRNKNNVA,NASLREM,QQYHRLPLS,3.02,3 of 6,0 of 18
KLSASQLYESRASNAVA,NASTRMM,QQYHRLPLS,0.38,6 of 6,0 of 18
KLYQSMGYLSHNKNSIA,DMSRRES,QQYHRLPLS,0.47,6 of 6,0 of 18
KSSQSELSESDDKNSVA,SASTRES,QQPHRLPVS,no signal,0 of 6,2 of 18
KSSISYQNESRNKNSVA,EASTRES,QQYHRLPLS,0.30,6 of 6,0 of 18
KSSQSVLYESRNYNSVA,WASTRES,QQYWRLPLM,1.40,1 of 6,0 of 18
IFSQSVLMESRNKNSVA,DASTRES,QQYHRLPLS,-0.38,6 of 6,2 of 18
KSSQSVLEDSRNKNSVA,WASTRES,QQYHRLPLS,1.10,6 of 6,1 of 18
KIQQSMLYESRNKNSVA,NASTRME,QQYHRLPLM,0.31,6 of 6,1 of 18
FLSQSWLYESRNKNSVA,NASTRLS,QQYHRLPLS,0.42,6 of 6,0 of 18
KSSQSVLYESRNKNSVA,WASIRES,QQYHRLPLS,2.25,1 of 6,0 of 18
KFSQSVAYESRTKNNVA,NASTRES,QQYHRLPLS,0.52,6 of 6,0 of 18
HLSHMSGVESVKHNSVA,ENSTREQ,QQYDRLPLS,2.50,5 of 6,0 of 18
QMSQSVLYESRNKNSVA,WASTRES,QQYWRLPLS,0.88,6 of 6,0 of 18
KFSQSVLYESGNKNSVA,GASTRES,QQVHRLPLS,3.70,2 of 6,2 of 18
MMSNVTGMESMSRNNVA,QTSTREQ,QQYDRLPLI,1.65,6 of 6,0 of 18
KLSQSEPYESRNKNSVA,NASTRMS,QQYHRLPLS,0.32,6 of 6,0 of 18
KSSMVYLYESRNKNSVA,GASTRES,QQYHRLPLS,0.27,6 of 6,1 of 18
KLSQSGLYESRNKNSVA,NASQRES,QQYHRLPLS,0.71,6 of 6,1 of 18
FLEQSELYESRMKNSVA,NASTRCS,QQYHRLPLS,0.95,6 of 6,1 of 18
FIGGNYYDKYQASNSIA,DEAHLMA,QQYDLLPLS,1.09,6 of 6,0 of 18
KLSQSHLYESRNKNSVA,NASTREK,QQYHRLPLS,0.32,6 of 6,1 of 18
KVSQSWLYESRNKNSVA,GASLRES,QQYHRLPLS,0.14,6 of 6,2 of 18
HLSDRLSYGKDLQNAVA,GVQTRMT,QQYARLPLL,0.51,2 of 6,0 of 18
KLTEMFQHTSKNKNNIA,ERSTREE,QQYHHLPLS,0.13,6 of 6,0 of 18
HMSQSWLMESRNSNSVA,EASTRLS,QQYHRLPLS,0.55,6 of 6,2 of 18
KLEQSANYESRNKNSVA,NASTRES,QQYHRLPLS,0.18,6 of 6,1 of 18
KLPQSVPYEERCFNSVA,HASTRES,QQYHRLPLS,0.47,6 of 6,0 of 18
KLRQQTLYETRNKNSVA,QASTRED,QQYHRLPLS,-0.11,6 of 6,2 of 18
KSSQSVLYEDRNKNSVA,WASTRES,QQYHRDPLS,no signal,0 of 6,1 of 18
KSSQSNLYESRNKNSVA,AASTRES,QQYHRLPLS,0.16,6 of 6,2 of 18
KWSQSVLYDSRWHNSVA,AASQRES,QQYHRLPLS,1.06,6 of 6,1 of 18
KLSMSDLYEWRNFNSVA,NASTREE,QQYHRLPLS,0.16,6 of 6,0 of 18
KWMQSDDQESRNKNSVA,HASTRCQ,QQYHRLPLS,0.64,6 of 6,1 of 18
KLPQSQLYESRNKNSVA,NASTRED,QQYHRLPLS,0.98,6 of 6,0 of 18
MMSMGYLGGMRAKNNVA,QEETREK,QQYHHLPLI,1.14,6 of 6,0 of 18
KVSQSQDYESRNKNSVA,QASQREQ,QQYHRLPLY,0.15,6 of 6,1 of 18
MIGQMLGVQSNKIHSVA,QANLRED,QQYDRLPLE,0.93,6 of 6,0 of 18
KFSQSVKFESRNKNSVA,DASTRES,QQYHRLPLS,-0.12,6 of 6,0 of 18
KLDSAYQHGTNQKSAMA,SASVSTQ,QQYSRLPLS,0.65,6 of 6,1 of 18
KCQGSQLYESRNKNAVA,NASYRLD,QQYHRLPLS,0.70,6 of 6,1 of 18
KSSQSVLYESRNKNSVA,WASTRES,QQYHRLQLS,no signal,0 of 6,0 of 18
KFSHSVLYESRNKNSVA,WASTRES,QQYHRLPLS,1.81,3 of 6,0 of 18
KLSHSVLYESANPNFVM,WASTRES,QDYHRLPLS,0.67,6 of 6,0 of 18
TISQVMNTLTREGNNVA,DLAERED,QQYFRLPLS,0.57,6 of 6,0 of 18
KLMGSSLYDSRNKNSVA,NASTREV,QQYHRLPLS,-0.24,6 of 6,3 of 18

8 of these entries, quoted again:

CDR-L1,CDR-L2,CDR-L3,"mean, log10 nM",replicates with signal,empty controls
KLSASQLYESRASNAVA,NASTRMM,QQYHRLPLS,0.38,6 of 6,0 of 18
KLYQSMGYLSHNKNSIA,DMSRRES,QQYHRLPLS,0.47,6 of 6,0 of 18
KSSQSVLYESRNKNSVA,WASTRES,QQYHRLQLS,no signal,0 of 6,0 of 18
KCQGSQLYESRNKNAVA,NASYRLD,QQYHRLPLS,0.70,6 of 6,1 of 18
FLEQSELYESRMKNSVA,NASTRCS,QQYHRLPLS,0.95,6 of 6,1 of 18
KVSQSQDYESRNKNSVA,QASQREQ,QQYHRLPLY,0.15,6 of 6,1 of 18
HLSHMSGVESVKHNSVA,ENSTREQ,QQYDRLPLS,2.50,5 of 6,0 of 18
KLSQSVLYESRNKNSVA,NASKRES,QQYHRLPLS,0.15,6 of 6,0 of 18

As a blank, each scFv also met three strains without target: over all light chain designs, 4% of these pairings were detected, typically at 2.64 and seldom below 1.59. For each scFv, signals with the empty controls are counted beside the result. The range of this assay differs from that of the first round, and the authors advise against merging the two. The parent sequence was in this pool as ten entries: three were never detected, three once, and four in most replicates, with averages from 0.34 to 2.37. In the paper, a design with two or fewer of six values counts as a poor binder.